From ChEMBL document CHEMBL6114984, “Discovery of 2,4-diaminopyrimidine derivatives as potent inhibitors of FAK capable of activating the Hippo pathway for the treatment of esophageal squamous cell carcinoma” (Eur J Med Chem, 2025)

By UniProt entry, the sequences of proteins in these tests, tags left out.
UniProt P49023, whole entry: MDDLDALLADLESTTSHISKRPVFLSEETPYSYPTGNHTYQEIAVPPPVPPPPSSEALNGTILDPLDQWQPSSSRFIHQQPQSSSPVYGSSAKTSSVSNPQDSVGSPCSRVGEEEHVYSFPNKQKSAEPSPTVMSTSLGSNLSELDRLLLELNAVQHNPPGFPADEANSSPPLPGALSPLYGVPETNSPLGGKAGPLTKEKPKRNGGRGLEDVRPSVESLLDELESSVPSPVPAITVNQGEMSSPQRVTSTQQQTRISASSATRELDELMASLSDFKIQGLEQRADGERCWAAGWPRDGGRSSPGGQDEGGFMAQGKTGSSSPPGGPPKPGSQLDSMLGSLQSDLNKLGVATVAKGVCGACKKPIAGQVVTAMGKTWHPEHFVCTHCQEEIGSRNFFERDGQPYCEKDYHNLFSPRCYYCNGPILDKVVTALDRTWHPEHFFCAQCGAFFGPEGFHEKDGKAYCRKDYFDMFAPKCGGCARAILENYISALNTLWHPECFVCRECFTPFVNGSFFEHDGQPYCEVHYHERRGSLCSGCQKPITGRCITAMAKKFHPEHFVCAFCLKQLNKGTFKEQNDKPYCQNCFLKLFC
UniProt Q14289, whole entry, looked up: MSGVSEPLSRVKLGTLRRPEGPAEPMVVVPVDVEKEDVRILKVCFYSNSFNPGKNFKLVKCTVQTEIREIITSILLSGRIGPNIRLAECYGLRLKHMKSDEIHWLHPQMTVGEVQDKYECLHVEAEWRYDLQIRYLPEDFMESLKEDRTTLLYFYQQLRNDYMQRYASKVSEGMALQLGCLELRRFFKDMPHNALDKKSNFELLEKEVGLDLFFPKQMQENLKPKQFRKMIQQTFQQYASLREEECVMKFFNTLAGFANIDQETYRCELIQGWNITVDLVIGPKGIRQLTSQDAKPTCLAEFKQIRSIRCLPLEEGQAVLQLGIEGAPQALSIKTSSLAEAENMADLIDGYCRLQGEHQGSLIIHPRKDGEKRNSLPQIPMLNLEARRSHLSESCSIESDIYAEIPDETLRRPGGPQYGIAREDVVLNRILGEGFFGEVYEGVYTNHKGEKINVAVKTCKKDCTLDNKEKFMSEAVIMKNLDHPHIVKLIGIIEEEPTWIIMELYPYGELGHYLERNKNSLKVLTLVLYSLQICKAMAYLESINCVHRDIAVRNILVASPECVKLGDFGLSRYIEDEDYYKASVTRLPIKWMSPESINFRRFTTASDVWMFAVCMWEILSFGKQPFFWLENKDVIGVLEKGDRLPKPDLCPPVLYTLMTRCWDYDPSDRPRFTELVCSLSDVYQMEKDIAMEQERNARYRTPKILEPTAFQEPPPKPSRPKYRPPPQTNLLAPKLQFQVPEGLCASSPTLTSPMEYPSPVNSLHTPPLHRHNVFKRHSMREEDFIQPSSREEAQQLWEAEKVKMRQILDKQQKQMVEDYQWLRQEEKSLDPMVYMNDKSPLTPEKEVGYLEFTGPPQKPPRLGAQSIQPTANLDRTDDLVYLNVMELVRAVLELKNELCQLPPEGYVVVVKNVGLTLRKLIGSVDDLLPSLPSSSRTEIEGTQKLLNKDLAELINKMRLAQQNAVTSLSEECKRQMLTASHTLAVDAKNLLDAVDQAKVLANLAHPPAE

Columns and labels:
[1] = tested on: KYSE-30; conditions: Homo sapiens, dose 400.0 nmol/L, time 48.0 hrs
[2] = tested on: KYSE-450; conditions: Homo sapiens, dose 400.0 nmol/L, time 48.0 hrs
[3] = tested on: KYSE-30; conditions: Homo sapiens, dose 400.0 nmol/L, time 48.0 hrs; remark: listed apart in the source
[4] = tested on: KYSE-450; conditions: Homo sapiens, dose 400.0 nmol/L, time 48.0 hrs; remark: listed apart in the source
[5] = tested on: KYSE-30; conditions: Homo sapiens, dose 400.0 nmol/L, time 48.0 hrs; remark: listed apart in the source
[6] = tested on: KYSE-450; conditions: Homo sapiens, dose 400.0 nmol/L, time 48.0 hrs; remark: listed apart in the source
[7] = target: Paxillin (Homo sapiens) (UniProt P49023); conditions: KYSE-30, dose 400.0 nmol/L, time 48.0 hrs
[8] = target: Paxillin (Homo sapiens) (UniProt P49023); conditions: KYSE-450, dose 400.0 nmol/L, time 48.0 hrs
[9] = target: Protein-tyrosine kinase 2-beta (Homo sapiens) (UniProt Q14289); conditions: KYSE-30, dose 400.0 nmol/L, time 48.0 hrs
[10] = target: Protein-tyrosine kinase 2-beta (Homo sapiens) (UniProt Q14289); conditions: KYSE-450, dose 400.0 nmol/L, time 48.0 hrs

SMILES	inhibition [1]	inhibition [2]	inhibition [3]	inhibition [4]	inhibition [5]	inhibition [6]	inhibition [7]	inhibition [8]	inhibition [9]	inhibition [10]
CNC(=O)c1ccccc1Nc1nc(Nc2ccc(N3CCOCC3)cc2OC)ncc1Cl	inactive	inactive	inactive	inactive	inactive	inactive				
CCN1CCN(C(=O)Nc2ccc(Nc3ncc(Cl)c(Nc4ccccc4C(=O)NC)n3)cc2)CC1							Active	Active	Active	Active

The source made the active and inactive calls. The rule behind the calls is not given here.
